Test results: US20230203098A1, “HUMAN TRANSFERRIN RECEPTOR BINDING PEPTIDE” (priority 2020, published 2023)

The chains behind the UniProt entries cited, without tags or fusion partners.
UniProt P02786, whole entry: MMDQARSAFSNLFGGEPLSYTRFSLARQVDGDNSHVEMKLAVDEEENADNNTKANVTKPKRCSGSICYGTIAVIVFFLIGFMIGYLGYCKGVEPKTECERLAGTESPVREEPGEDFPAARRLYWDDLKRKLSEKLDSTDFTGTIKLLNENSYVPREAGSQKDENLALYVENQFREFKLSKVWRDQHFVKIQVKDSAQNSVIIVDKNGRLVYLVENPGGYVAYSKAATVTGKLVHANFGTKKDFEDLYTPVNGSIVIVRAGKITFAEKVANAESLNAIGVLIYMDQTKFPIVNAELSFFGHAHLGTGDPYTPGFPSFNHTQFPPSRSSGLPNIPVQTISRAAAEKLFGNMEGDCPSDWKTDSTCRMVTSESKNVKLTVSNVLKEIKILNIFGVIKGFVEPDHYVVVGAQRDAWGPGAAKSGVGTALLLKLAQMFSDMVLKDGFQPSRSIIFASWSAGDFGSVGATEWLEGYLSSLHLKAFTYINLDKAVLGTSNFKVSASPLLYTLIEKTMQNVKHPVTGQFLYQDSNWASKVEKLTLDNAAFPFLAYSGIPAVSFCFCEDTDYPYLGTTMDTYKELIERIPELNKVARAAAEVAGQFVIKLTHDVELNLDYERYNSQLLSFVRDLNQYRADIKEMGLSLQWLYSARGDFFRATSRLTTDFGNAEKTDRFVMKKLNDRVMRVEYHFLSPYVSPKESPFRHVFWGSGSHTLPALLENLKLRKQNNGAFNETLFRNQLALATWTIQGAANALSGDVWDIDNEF

These molecules were tested against transferrin receptor (hTfR) (Homo sapiens, UniProt P02786) (assay: Intermolecular interaction evaluation test between transferrin receptor (hTfR) and peptide by surface plasmon resonance (SPR)). Settings: SPR; hTfR No. 894 variants with PEG12c linker (Table 2); read-out: KD.
Type: binding
Method: For each of the various synthesized peptides, the intermolecular interaction of the peptide with the transferrin receptor (hTfR) was tested by surface plasmon resonance (SPR) according to the following method. The specific test method is as follows.
An NTA sensor chip (Global Life Sciences Technologies Japan) was inserted in a Biacore T200 (Global Life Sciences Technologies Japan) and a prime operation was performed 3 times with a running buffer: 10 mM HEPES pH 8.0 (Nacalai Tesque), 150 mM NaCl (Nacalai Tesque), 0.05% Tween 20 (Nacalai Tesque), 0.1% BSA (Sigma-Aldrich), 1.0% DMSO (FUJIFILM Wako Pure Chemical) to create an Equilibration state at a flow rate of 30 µL/min. After reacting with 350 mM EDTA solution for 60 seconds at a flow rate of 10 µL/min then reacting with 0.5 mM NiCl2 solution (Kishida Chemical) for 60 seconds at a flow rate of 10 µL/min, the NTA sensor chip was washed with 3 mM EDTA solution (Nacalai Tesque) for 60 seconds at a flow rate of 10 µL/min. After mixing 50 µL each of 60 mM EDC solution (Global Life Sciences Technologies Japan) and 650 mM NHS solution (Global Life Sciences Technologies Japan), the mixture was reacted for 420 seconds at a flow rate of 10 µL/min. By diluting with the running buffer, 150 µL of 3.2 µM hTfR solution was prepared and used for reaction for 600 seconds at a flow rate of 10 µL/min, thereby immobilizing hTfR on the NTA sensor chip. After immobilization, capping was performed by reacting with 1.0 M ethanolamine aqueous solution (Global Life Sciences Technologies Japan) for 420 seconds at a flow rate of 10 µL/min. A peptide dissolution liquid prepared to 10 mM in the DMSO solution was diluted with the running buffer to a final concentration of 10 µM so as to become the peptide dissolution liquid, then peptide solutions of 100 nM, 50 nM, 25 nM, 10 nM and 5 nM were prepared. Kinetics of the peptide to hTfR was acquired by SPR measurement using the above-mentioned samples. Single-cycle kinetics was used as a kinetic evaluation model and curve fitting was performed using Biacore T200 Evaluation Software Version 3.0 (Global Life Sciences Technologies Japan). An obtained sensorgram was subjected to curve fitting using the least-squares method, and the binding of the peptide to hTfR was evaluated by obtaining KD values. […] A chemical structure of hTfR No. 894 is as follows.
The variant peptides were synthesized according to Example 1 unless otherwise stated in Example 9 or 10. The linker-added peptides were synthesized according to Example 1, except that Fmoc-NH-SAL-PEG resin (Watanabe Chemical Industries) was used as a resin for the peptide synthesis when the linker was PEG. The peptide, to which a peptide, a fatty acid, PEG, or a conjugate thereof is added as a linker, was also synthesized according to Example 1, unless otherwise stated in Example 9 or 10.
Molecule `CC[C@H](C)[C@@H]1NC(=O)[C@H](Cc2ccc(O)cc2)NC(=O)[C@H](Cc2ccc(O)cc2)NC(=O)[C@H](CC(N)=O)NC(=O)[C@H](Cc2c[nH]c3ccccc23)NC(=O)CNC(=O)[C@H](Cc2ccccc2)N(C)C(=O)[C@H](C(C)C)NC(=O)[C@H](C)NC(=O)CSC[C@@H](C(=O)NCCOCCOCCOCCOCCOCCOCCOCCOCCOCCOCCOCCOCCC(N)=O)NC(=O)[C@H](Cc2ccc(O)cc2)N(C)C(=O)[C@H](Cc2ccc(O)cc2)NC(=O)[C@H](CCCNC(=N)N)NC(=O)[C@H](CCCNC(=N)N)NC(=O)[C@H]([C@@H](C)CC)NC1=O` [compound 126] has a Kd of 100 to 1000 nM. For `CC[C@H](C)[C@@H]1NC(=O)[C@H](Cc2ccc(O)cc2)NC(=O)[C@H](Cc2ccc(O)cc2)NC(=O)[C@H](CC(N)=O)NC(=O)[C@H](Cc2c[nH]c3ccccc23)NC(=O)[C@H](C(C)C)NC(=O)[C@H](Cc2ccccc2)N(C)C(=O)[C@H](C(C)C)NC(=O)CNC(=O)CSC[C@@H](C(=O)NCCOCCOCCOCCOCCOCCOCCOCCOCCOCCOCCOCCOCCC(N)=O)NC(=O)[C@H](Cc2ccc(O)cc2)N(C)C(=O)[C@H](Cc2ccc(O)cc2)NC(=O)[C@H](CCCNC(=N)N)NC(=O)[C@H](CCCNC(=N)N)NC(=O)[C@H]([C@@H](C)CC)NC1=O` [compound 131], the Kd was 1 to 100 nM. Molecule `CC[C@H](C)[C@@H]1NC(=O)[C@H](Cc2ccc(O)cc2)NC(=O)[C@H](Cc2ccc(O)cc2)NC(=O)[C@H](CC(N)=O)NC(=O)[C@H](Cc2c[nH]c3ccccc23)NC(=O)[C@H](C(C)C)NC(=O)[C@H](Cc2ccccc2)N(C)C(=O)[C@H](C(C)C)NC(=O)[C@H](CO)NC(=O)CSC[C@@H](C(=O)NCCOCCOCCOCCOCCOCCOCCOCCOCCOCCOCCOCCOCCC(N)=O)NC(=O)[C@H](Cc2ccc(O)cc2)N(C)C(=O)[C@H](Cc2ccc(O)cc2)NC(=O)[C@H](CCCNC(=N)N)NC(=O)[C@H](CCCNC(=N)N)NC(=O)[C@H]([C@@H](C)CC)NC1=O` [compound 132] has a Kd of 1 to 100 nM. `CC[C@H](C)[C@@H]1NC(=O)[C@H](Cc2ccc(O)cc2)NC(=O)[C@H](Cc2ccc(O)cc2)NC(=O)[C@H](CC(N)=O)NC(=O)[C@H](Cc2c[nH]c3ccccc23)NC(=O)[C@H](C(C)C)NC(=O)[C@H](Cc2ccccc2)N(C)C(=O)[C@H](C(C)C)NC(=O)[C@H](Cc2ccccc2)NC(=O)CSC[C@@H](C(=O)NCCOCCOCCOCCOCCOCCOCCOCCOCCOCCOCCOCCOCCC(N)=O)NC(=O)[C@H](Cc2ccc(O)cc2)N(C)C(=O)[C@H](Cc2ccc(O)cc2)NC(=O)[C@H](CCCNC(=N)N)NC(=O)[C@H](CCCNC(=N)N)NC(=O)[C@H]([C@@H](C)CC)NC1=O` [compound 138] gave a Kd of 100 to 1000 nM. In the case of `CC[C@H](C)[C@@H]1NC(=O)[C@H](Cc2ccc(O)cc2)NC(=O)[C@H](Cc2ccc(O)cc2)NC(=O)[C@H](CC(N)=O)NC(=O)[C@H](Cc2c[nH]c3ccccc23)NC(=O)[C@H](CO)NC(=O)[C@H](Cc2ccccc2)N(C)C(=O)[C@H](C(C)C)NC(=O)[C@H](C)NC(=O)CSC[C@@H](C(=O)NCCOCCOCCOCCOCCOCCOCCOCCOCCOCCOCCOCCOCCC(N)=O)NC(=O)[C@H](Cc2ccc(O)cc2)N(C)C(=O)[C@H](Cc2ccc(O)cc2)NC(=O)[C@H](CCCNC(=N)N)NC(=O)[C@H](CCCNC(=N)N)NC(=O)[C@H]([C@@H](C)CC)NC1=O` [compound 141], the Kd is reported as 100 to 1000 nM. Molecule `CC[C@H](C)[C@@H]1NC(=O)[C@H](Cc2ccc(O)cc2)NC(=O)[C@H](Cc2ccc(O)cc2)NC(=O)[C@H](CC(N)=O)NC(=O)[C@H](Cc2c[nH]c3ccccc23)NC(=O)[C@H](C)NC(=O)[C@H](Cc2ccccc2)N(C)C(=O)[C@H](C(C)C)NC(=O)[C@H](C)NC(=O)CSC[C@@H](C(=O)NCCOCCOCCOCCOCCOCCOCCOCCOCCOCCOCCOCCOCCC(N)=O)NC(=O)[C@H](Cc2ccc(O)cc2)N(C)C(=O)[C@H](Cc2ccc(O)cc2)NC(=O)[C@H](CCCNC(=N)N)NC(=O)[C@H](CCCNC(=N)N)NC(=O)[C@H]([C@@H](C)CC)NC1=O` [compound 144] has a Kd of 100 to 1000 nM.

Same assay, conditions: hTfR binding by SPR; hTfR No. 894 variant peptides, linker-added peptides and payload conjugates (Table 2); read-out: KD value obtained from the SPR measurement
`CC[C@H](C)[C@@H]1NC(=O)[C@H](Cc2ccc(O)cc2)NC(=O)[C@H](Cc2ccc(O)cc2)NC(=O)[C@H](CC(N)=O)NC(=O)[C@H](Cc2c[nH]c3ccccc23)NC(=O)[C@H](C(C)C)NC(=O)[C@H](Cc2ccccc2)N(C)C(=O)[C@H](C(C)C)NC(=O)[C@H](C)NC(=O)CSC[C@@H](C(=O)NCC(=O)NCC(=O)N[C@@H](CO)C(=O)NCC(=O)N[C@@H](CCC(=O)O)C(=O)N[C@@H](CO)C(=O)N[C@@H](CCCCNC(=O)C2CCC(CN3C(=O)C=CC3=O)CC2)C(N)=O)NC(=O)[C@H](Cc2ccc(O)cc2)N(C)C(=O)[C@H](Cc2ccc(O)cc2)NC(=O)[C@H](CCCNC(=N)N)NC(=O)[C@H](CCCNC(=N)N)NC(=O)[C@H]([C@@H](C)CC)NC1=O` (stereo partly shown) [compound 191] showed a Kd of 1 to 100 nM.
